The values that follow come from PMC10502087, “Fatty acid binding proteins are novel modulators of synaptic epoxyeicosatrienoic acid signaling in the brain” (Scientific Reports, 2023).

In the experiment the test system is CA1 pyramidal neuron glutamate synapses. Briefly: Ex vivo whole-cell recordings of evoked EPSCs in hippocampal slices. The following applies: inhibitor 10 µM with TPPU 10 µM.

Each structure is given as a SMILES string.

Take `COc1ccccc1[C@H]1[C@H](C(=O)O)[C@H](c2ccccc2OC)[C@H]1C(=O)Oc1ccccc1-c1ccccc1` (relative stereo): the “Effect on TPPU-induced depression of eEPSCs” value is listed as “completely abolished” and the “Effect on TPPU-induced potentiation of eEPSCs” value is “reduced”.
